Source: PubChem BioAssay (Broad Institute)
RAD54 inh = inhibitors of human RAD54 branch migration; hit rate 0.14% among 360,000; inhibition, % at 10.4 µM; RAD54 Holliday junction branch migration, FAM/BHQ fluorescence; Q92698;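 active = mean normalized replicate activity at least 40 and at least half of replicates scoring 40 or more; inconclusive = only one of the two criteria met; inactive = mean below 40 and under half of replicates reaching 40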;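 note: inhibitors cause a drop in the FAM fluorescence signal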
E-selectin induc = E-selectin induction on HUVECs; activation, % at 7.58 µM; P16581; AID 686992; hit rate 0.37% among 260,000; HUVEC E-selectin immunofluorescence imaging; normalized: neutral wells 0, TNF-alpha wells 100;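 active = mean E-selectin-positive cell signal at least 10% of the positive control, reached in at least 60% of replicates, without over 20% cell loss; inconclusive = no rule given, readout overlaps actives, possibly toxicity-flagged; inactive = the rest, including those meeting only one limit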
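Read-out: % PE-positive cells | Test system: HUVEC | Doses: One compound dose added by pin transfer | Buffer or medium: EGM-2 over gelatin coat | Signal: Immunofluorescence imaging | Benchmarks: TNF-alpha, DMSO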
RAD52 anneal inh = RAD52 (human) annealing inhibition | inhibition, % at 18.7 µM | recombinant RAD52 DNA annealing, FRET fluorescence | P43351 | hit rate 0.46% among 360,000;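 active = every replicate showing at least 50% inhibition; inconclusive = mean inhibition at least 50% but not in every replicate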
XiGFP reactiv = X-chromosome reactivation activator; XiGFP mouse fibroblasts, % GFP-positive cells imaging, 3 d; cells co-treated with 5-aza-dC sensitizer; scaled so ellipticine positive control = 100%; activation, % at 7.58 µM; hit rate 0.055% among 360,000;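 active = mean normalized replicate activation at least 10% and every replicate at or above 10%; inconclusive = only one of the two criteria met; inactive = mean below 10% and not all replicates reach 10%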
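Schedule: 3 d treatment, 15 min room-temperature fixation; system: 68-5-11 XiGFP fibroblast line; buffer or medium: DMEM plus 5-aza-dC sensitizer; control set: ellipticine 6 µM positive control; compound: one concentration, pinned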
Yeast UUG start = yeast start codon fidelity modulation. S. cerevisiae UUG-firefly luciferase reporter, luminescence/redox ratio. activity score, % at 18.7 µM. 0.13% of 350,000 active;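 active = replicate mean at a twofold rise or more, about +100% in these data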;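 also: firefly luciferase made from a UUG start codon reports start codon fidelity; reporter light over untreated wells divided by growth signal over untreated wells; some hits fall short of that in this replicate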
A number is an active result; i = inactive; ? = inconclusive; nt = no result given; ! = not confirmed by another sample. Hits are enriched below; roughly 0.73% of the tested compounds scored in any of these assays.

SMILES	RAD54 inh	E-selectin induc	RAD52 anneal inh	XiGFP reactiv	Yeast UUG start
COc1ccccc1-c1ccc([C@@H]2[C@@H]3CN(S(=O)(=O)c4ccc(-c5ccccc5)cc4)C[C@H]2N3)cc1	nt	i	87.8	i	nt
COc1cccc(S(=O)(=O)N2C[C@@H]3N[C@H](C2)C3c2ccc(-c3ccccc3OC)cc2)c1 (stereo partly specified)	nt	i	55.8!	i	nt
O=C(Nc1cccc(F)c1)N1CC(=O)N2[C@H](CO)[C@H](c3ccc(C#CCC4CCCC4)cc3)[C@@H]2C1	nt	i	i	i	nt
CCCC#Cc1cnc2c(c1)C(=O)N([C@@H](C)CO)C[C@@H](C)[C@@H](CN(C)S(C)(=O)=O)O2	i	i	i	i	i
Cc1ccccc1S(=O)(=O)N1C[C@@H]2N[C@H](C1)C2c1ccc(-c2ccc(C(=O)N(C)C)cc2)cc1 (stereo partly specified)	nt	i	i	i	nt
Cc1ccccc1S(=O)(=O)N1C[C@@H]2N[C@H](C1)C2c1ccc(-c2ccc(C#N)cc2)cc1 (stereo partly specified)	nt	i	72.0!	i	nt
CO[C@@H]1CN(C)C(=O)c2cc(NC(=O)Nc3ccc(Cl)cc3)ccc2OC[C@H](C)NC[C@H]1C	i	i	i	i	i
CO[C@H]1CN(C)C(=O)c2cc(NC(=O)Nc3cc(Cl)cc(Cl)c3)ccc2OC[C@@H](C)NC[C@@H]1C	nt	nt	59.0	i	nt
CO[C@H]1CN(C)C(=O)c2cc(NC(=O)Nc3ccc(Cl)c(Cl)c3)ccc2OC[C@H](C)NC[C@H]1C	i	i	54.0	i	nt
CO[C@@H]1CN(C)C(=O)c2cc(NC(=O)Nc3ccc(Cl)c(Cl)c3)ccc2OC[C@H](C)NC[C@@H]1C	i	i	52.0	i	nt
CNC[C@@H]1Oc2ccc(NC(=O)c3ccncc3)cc2CC(=O)N([C@@H](C)CO)C[C@H]1C	i	i	i	i	i
Cc1ccc(S(=O)(=O)N(C)C[C@@H]2Oc3ccc(NC(=O)NC(C)C)cc3C(=O)N([C@H](C)CO)C[C@H]2C)cc1	?	i	i	i	i
CC(C)CC#Cc1ccc2c(c1)O[C@H](CN(C)C)[C@@H](C)CN([C@H](C)CO)S2(=O)=O	i	i	i	i	i
N#Cc1cccc(-c2ccc(C3[C@@H]4CN(Cc5ccccc5F)C[C@H]3N4)cc2)c1 (stereo partly specified)	nt	i	83.1!	i	nt
N#Cc1cccc(-c2ccc(C3[C@@H]4CN(Cc5cocn5)C[C@H]3N4)cc2)c1 (stereo partly specified)	nt	i	65.0	i	nt
c1ncc(-c2ccc(C3[C@@H]4CN(Cc5cocn5)C[C@H]3N4)cc2)cn1 (stereo partly specified)	nt	i	i	i	nt
CS(=O)(=O)n1nc(-c2ccc(Cl)cc2)nc1N	nt	i	i	i	nt
Cn1nc(-c2ccc(Cl)cc2)nc2c(=O)n(C)c(=O)nc1-2	58.5	nt	nt	nt	i
CC[n+]1c(/C=C/c2c[nH]c3ccccc23)ccc2cc(C)ccc21	nt	nt	i	103.0	nt
CCN(CC)C(=O)c1ccc(/C=C/c2c[nH]c3ccccc23)[n+](C)c1	nt	nt	nt	i	nt
CO[C@H]1CN(C)C(=O)c2cc(NS(C)(=O)=O)ccc2OC[C@@H](C)N(CC2CCCCC2)C[C@@H]1C	i	i	i	i	i
C[C@@H](O)C#Cc1ccc([C@H]2[C@H](CO)N3CCCCN(S(=O)(=O)c4ccccc4)C[C@@H]23)cc1	i	i	i	i	i
COC(=O)C1=C(C)NC(=O)/C1=C\N(C)C	nt	38.7	i	i	nt
CC=Cc1ccc2n(c1=O)C[C@@H]1[C@@H](CO)[C@H](C(=O)NCCC)[C@H]2N1CCC(F)(F)F (mixture of isomers)	i	i	i	i	nt
COc1ccc(OC)c(NC(=O)c2csc(Cl)c2OC)c1	i	37.7	i	i	i
CC1(C)Cc2ccccc2-c2nc3n(c(=O)c21)CCCS3	nt	nt	i	i	nt
CC1(C)Cc2ccccc2-c2nc3n(c(=O)c21)CCS3	nt	77.4	i	i	nt
O=C(NCc1ccccc1)[C@H]1[C@H](CO)[C@H]2Cn3c(cccc3=O)[C@@H]1N2Cc1ccccn1	i	i	i	i	nt
O=C(c1ccc(F)cc1)N1C[C@@H]2N[C@H](C1)C2c1ccc(-c2ccc(F)cc2)cc1 (stereo partly specified)	nt	i	50.1	i	nt
COc1cccc(-c2ccc(C3[C@@H]4CN(C(=O)c5cnccn5)C[C@H]3N4)cc2)c1 (stereo partly specified)	nt	i	i	i	nt
